Source: article PMC5598417 (Toxicology Reports, 2014)

System: MA-10 cells
Test: Basal testosterone secretion by MA-10 Leydig cells
Assay type: cell-based, murine
Details: cAMP 100 μM or LH 10 ng/mL (8.5 IU/mL); 48-h exposure

LH: gonadotropin luteinizing hormone used to stimulate Leydig cells to produce T
increase in T secretion compared to vehicle-treated cells: 215 fold
